This assay has as its target Acetylcholine-binding protein (Lymnaea stagnalis, UniProt P58154). The assay is described as follows: Binding affinity to freshwater snail Lymnaea stagnalis AChBP assessed as [3H]EPI binding by radioligand binding assay.

Sequences of proteins named here, by UniProt entry; tags and fusion partners are left off.
UniProt P58154, whole entry: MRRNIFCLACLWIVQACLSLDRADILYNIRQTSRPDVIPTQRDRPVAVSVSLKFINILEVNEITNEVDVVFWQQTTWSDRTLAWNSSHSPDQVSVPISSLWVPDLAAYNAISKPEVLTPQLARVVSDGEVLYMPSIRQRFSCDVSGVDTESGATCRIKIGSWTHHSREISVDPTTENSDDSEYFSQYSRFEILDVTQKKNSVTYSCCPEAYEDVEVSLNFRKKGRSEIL

pKi: −log10 of the molar value.

The record followed here is ChEMBL document CHEMBL3045824, “Unique neonicotinoid binding conformations conferring selective receptor interactions” (J Agric Food Chem, 2011).

One may read the pKi as the negative decadic logarithm of the Ki, by convention in mol/L.

On to `CN1CCC[C@H]1c1cccnc1` [NICOTINE], for which the negative-log Ki (pKi) is 7.00.
